Assays:
[1] = weekly following a 400 mg/m^2 load, with selumetinib 75 mg PO BID
[2] = Cetuximab plasma concentrations; type: in vivo, human

With “cetuximab: EGFR-directed therapy (Erbitux, Bristol-Myers Squibb), given IV” the “maximum tolerated dose of the combination, cetuximab part” value [1] was 250 mg/m^2, the “Cetuximab plasma concentration, Mean” value ([2]; Cycle 1 Day 1 (baseline), N=32) was 0 µg/mL and the “Cetuximab steady state concentrations” value ([2]; achieved by day 8 after the loading dose) was 18 to 20 µg/mL. The “Cetuximab plasma concentration, Mean” value ([2]; trough, Cycle 1 Day 8, N=31) was 18.36 µg/mL, the “Cetuximab plasma concentration, Mean” value ([2]; trough, Cycle 1 Day 15, N=28) was 20.68 µg/mL and the “Cetuximab plasma concentration, Mean” value ([2]; trough, Cycle 1 Day 22, N=26) was 18.66 µg/mL. The “Cetuximab plasma concentration, Mean” value ([2]; trough, Cycle 2 Day 1, N=32) was 21.31 µg/mL, the “Cetuximab plasma concentration, Mean” value ([2]; trough, Cycle 3 Day 1, N=18) was 16.99 µg/mL and the “Cetuximab plasma concentration, Mean” value ([2]; trough, Cycle 4 Day 1, N=7) was 7.73 µg/mL. For the same substance, the “Cetuximab plasma concentration, Mean” value ([2]; trough, Cycle 5 Day 1, N=5) was 7.28 µg/mL, the “Cetuximab plasma concentration, Mean” value ([2]; trough, Cycle 6 Day 1, N=1) was 9.16 µg/mL and the “Cetuximab plasma concentration, Mean” value ([2]; trough, Cycle 7 Day 1, N=1) was 8.18 µg/mL.

From article PMC4788533 (Investigational new drugs, 2015)
